Measured affinities in a library of Ab-14 heavy chain variants

Data: MIT Lincoln Laboratory AlphaSeq set, Engelhart et al. 2022, doi:10.1038/s41597-022-01779-4, as distributed in FLAb.

Binding partner: SARS-CoV-2 spike HR2 peptide, sequence PDVDLGDISGINAS.

The variants keep the light chain, the linker and the frameworks of Ab-14 (scFv order VH, the linker GGGGSGGGGSGGGGS, VL).
VH: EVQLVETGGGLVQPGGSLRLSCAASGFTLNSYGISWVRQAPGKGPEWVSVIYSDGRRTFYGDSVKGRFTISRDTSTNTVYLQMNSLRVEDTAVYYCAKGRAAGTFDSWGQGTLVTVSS
VL: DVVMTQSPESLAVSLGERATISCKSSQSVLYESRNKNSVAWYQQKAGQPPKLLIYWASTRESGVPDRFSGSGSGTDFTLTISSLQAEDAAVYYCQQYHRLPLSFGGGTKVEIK

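Variants in AAYL49 differ from the parent at up to three CDR positions; double and triple changes were sampled at random. Affinity was read by AlphaSeq, a pooled yeast mating assay with surface-displayed partners. Pairs that bind mate more often; barcode pairs of the diploids are counted by sequencing. A regression on co-assayed BCL2-family reference pairs converts the normalised counts of each replicate to an apparent Kd. Each pool was mated in three replicate cultures.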

Each variant is given by its three heavy chain CDRs, as the data file delimits them; those of the parent are GFTLNSYGIS, VIYSDGRRTFYGDSVK, GRAAGTFDS. The read-out is the apparent dissociation constant on a log10 scale (nM): the lower, the stronger. Replicates are averaged; those with no signal do not enter the mean. "not detected" means that the variant was in the library but no mating with the target was seen in any replicate; the authors take this as a sign of poor binding, and no number exists. The list is sorted by this average, lowest first, undetected variants last.

CDR-H1 | CDR-H2 | CDR-H3 | mean, log10 nM | seen in
GFTLNSYGIS | VIYSDGRRTFYGDSVK | GRAPGPTDS | 1.85 | 3 of 3
GFWLNSYGIS | VIYSDGRRTFYGDMVK | GAAAGTFDS | 2.17 | 2 of 3
GFTKNSYGIS | VIYSDARRTFYGDSVK | GRAAGSFDS | 2.41 | 1 of 3
GETINSYGIS | VIYSDGRRTFYNDSVK | GRAAGTFDS | 2.42 | 3 of 3
GFTLNSYGMS | VIYSDGVRTFYGDSVK | GRAAGTFMS | 2.60 | 3 of 3
GFWLNSYGIS | VIYSDGRRTFYGGSVK | GRMAGTFDS | 2.92 | 3 of 3
GYTLKSYGIS | VIYSDGRRTWYGDSVK | GRAAGTFDS | 3.04 | 1 of 3
GFTLNSYGIS | VIYSDGRRTFYGDSVK | GRAAGTFGN | 3.37 | 1 of 3
GFTLNSYFIS | VIYFDGRRDFYGDSVK | GRAAGTFDS | 3.40 | 1 of 3
GFTLNSYGHS | VIYSCGRRTFYYDSVK | GRAAGTFDS | 3.50 | 1 of 3
GFTLNSHGIS | VIYSDGRNTFYGDSVK | GRAAGTFDC | 3.51 | 2 of 3
GFTLNSYGIS | VIGSKGMRTFYGDSVK | GRAAGTFDS | 3.51 | 1 of 3
GFFLNSYGIS | VRYSDGRRTFYGDSVK | GRNAGTFDS | 3.59 | 2 of 3
GFHLNSYGFS | VIYSDGRRTFYGDSVK | GRAGGTFDS | 3.60 | 3 of 3
GCTLNDYGIS | VIYSDGRRTFYGDSVK | GRAAGTFDS | 3.66 | 2 of 3
GFTLNSYGIS | VIYSDGRRTFVGDSVY | GSAAGTFDS | 3.95 | 3 of 3
GFTLNDYGIS | VIYSAGRRTFAGDSVK | GRAAGTFDS | 3.98 | 1 of 3
GFTLNSLGIS | VIYSDGRRTFDGDSVK | GRGAGTFDS | 4.02 | 1 of 3
GFTLSSYGIS | VIYSDGRRTFYGDSVK | GRAAGMFDS | 4.02 | 1 of 3
GFTLNSYGIS | VIYSDGQRTFYGHSVK | GRAAGDFDS | 4.02 | 2 of 3
GFTLNSYGIS | VIYSDGRRTFYEDTVK | GRKAGTFDS | 4.04 | 1 of 3
GFTLNSYGIS | VNYSDGRRTFYGDSCK | GRAAGMFDS | 4.05 | 1 of 3
GFTDNSYGIS | VIYSDGRRTFYGDSVK | GRAAGTFDI | 4.15 | 1 of 3
GFTLNSYGIS | WILSVGRRTFYGDSVK | GRAAGTFDS | 4.24 | 2 of 3
GDTLNSYGIS | WIYSDGRRTFYGDSVK | GRAATTFDS | 4.27 | 1 of 3
GFTLNSYGIS | VDYSLGRRTFYGDSVK | GRAAGAFDS | 4.29 | 1 of 3
GFTLNSYGIS | FIWSDGRRTFYGDSVK | GRAAGTFNS | 4.35 | 1 of 3
GFTLNSYGQS | VIYSDGRRTFYGDSVK | GRAAGTNES | 4.39 | 1 of 3
GFTLNSYGIS | VIYSDARRTFYGDSVL | GRAAGTFDS | 4.40 | 2 of 3
GFTLNSQGIS | VIYSDGRCTFYGDSVK | GRAAGTFDF | 4.45 | 3 of 3
GFTLNSYCIS | VIYSDGRRTFYGDSVL | GRAAGTFDS | 4.46 | 1 of 3
GFTLNSYGIS | VPYSDGRFTFYGDSVK | GRAAGTPDS | 4.69 | 1 of 3
GFTLNSYGII | VIYSDGRRTFYGDSVK | DRAAGFFDS | 4.70 | 2 of 3
GFTLNSYPIS | VIYEDGRRTFYGDSVK | GRAAGTFDS | 4.89 | 2 of 3
GFTLNSFGIS | MIGSDGRRTFYGDSVK | GRAAGTFDS | 4.91 | 3 of 3

Further variants, results first:

mean, log10 nM | seen in | CDR-H1 | CDR-H2 | CDR-H3
5.16 | 1 of 3 | GFTLNSYGIS | VIYSDGRRGFYGDSVK | VRAAGTFAS
5.19 | 2 of 3 | GFTLNSYGIS | VSYSDGRRTFYGDSVK | GRAAGTEDS
5.27 | 2 of 3 | GFTLNSYGIS | VIYSDGQRPFYGDSFK | GRAAGTFDS
5.35 | 1 of 3 | GFTLNSYGLS | VIYSDGRRTFYGDSRK | GRAAGTFDS
5.67 | 2 of 3 | KFTNNSYGIS | VIYSDGRRTFYGDSVK | SRAAGTFDS
6.15 | 2 of 3 | GFTKNSYGIS | VIYSDGRRTFYGDSVK | GCAAGDFDS
not detected | 0 of 3 | GFTLNSYGIS | AIYSDGRRTFYGDSVK | GRAAGFQDS
not detected | 0 of 3 | GFHLNSYGIS | VIYSDYRRTFYGDSVK | GYAAGTFDS
not detected | 0 of 3 | GFTLNSYGIS | VHYLEGRRTFYGDSVK | GRAAGTFDS
not detected | 0 of 3 | HFTLNSPGIS | VIYSDGRRTFDGDSVK | GRAAGTFDS
not detected | 0 of 3 | GFTLNSYGIS | DDYSDFRRTFYGDSVK | GRAAGTFDS
not detected | 0 of 3 | GFTLNSYGIS | VIASDGRRYFYGDSVK | GRAAGTFDS
not detected | 0 of 3 | GFTLNSYGIS | VIYSKGRRTFYGDSVK | GRAADTFDS
not detected | 0 of 3 | GFTINSYGIS | IIYSDGRRTFYGDSVK | GRAAGGFDS
not detected | 0 of 3 | GFTNNSYGIS | VPYSDGRRTFYGDSVK | GRAAGTEDS
not detected | 0 of 3 | GFTLNSYGIS | VIYSDVRRTFYGDSVK | GRAAGTYDS
not detected | 0 of 3 | GFTLNSYKIS | AMYSDGRRTFYGDSVK | GRAAGTFDS
not detected | 0 of 3 | GFTLNSYGIS | VIWSDGRRTFYGDSVK | GRADGTFDM
not detected | 0 of 3 | GFTLNSYGGS | VIYSIGRRTFYDDSVK | GRAAGTFDS
not detected | 0 of 3 | GFTMNSYGIS | VIYSDGRRTFYGDMVK | LRAAGTFDS
not detected | 0 of 3 | GFTLNSYGIS | VIYSDGRREFHGDHVK | GRAAGTFDS
not detected | 0 of 3 | GFTLSSYGIS | VIYKDGRRTFYGDSVM | GRAAGTFDS
not detected | 0 of 3 | GFTKNSYGIS | VIYSDGRRTFYGDSVG | GRAAGTPDS
not detected | 0 of 3 | RFSPNSYGIS | VIYSDGRRTFYGDSVK | GRAAGTFDS
not detected | 0 of 3 | GFTSNSRGIS | VIYSDGRRTFYGDSVK | GRPAGTFDS
not detected | 0 of 3 | GFTLNMYGIS | VIYSVGRRTFYGDSVK | GRVAGTFDS
not detected | 0 of 3 | WFTLNSYGIS | VIYSGGRRTFYGDSVK | GRAAGTFAS
not detected | 0 of 3 | GFTLNSEGHS | VIYSDGRRTFYGDSVK | GRPAGTFDS
not detected | 0 of 3 | GFTLNSYGIS | VIGSDGLRTFYGDSVK | GRAAGTFDS
not detected | 0 of 3 | GFTLNVYAIS | VIYSDGLRTFYGDSVK | GRAAGTFDS
not detected | 0 of 3 | GFTLNDNGIS | VIYSDCRRTFYGDSVK | GRAAGTFDS
not detected | 0 of 3 | GFTLNSYGIS | VIYSDGRRLFYGDSVK | GVAAGIFDS
not detected | 0 of 3 | GFTLNSYGIS | VIMSDGRRTFYGDSIT | GRAAGTFDS
not detected | 0 of 3 | GFTLNSYGIS | VIYSDGNRTDYGDSVK | GPAAGTFDS
not detected | 0 of 3 | GFTLNSYGIS | VWYQDGRRTFTGDSVK | GRAAGTFDS

As a blank, each scFv also met three strains without target: over library AAYL49, 15% of these pairings were detected, typically at 4.06 and seldom below 2.83.